From PMC12035797, “Peptidomimetics Activating the Proteasome: A New Perspective for Parkinson’s Treatment” (Journal of Medicinal Chemistry, 2025)

Target: T1, human 20S proteasome
T1 construct: human proteasome isolated from erythrocytes; from tissue; host or cells: human erythrocytes
Assay: Microscale thermophoresis (MST) binding to NT-647 labeled proteasome
Settings: Hill fit, n = 3, read-out: EC50 (binding with h20S)
Text: One of them tested the ability of the compounds to interact with the human 20S proteasome. We used microscale thermophoresis for this purpose and performed measurements utilizing proteasomes labeled with the NT-647 dye. Using the recorded thermophoretic transitions, we determined proteasome-modulator affinity (Figure 4A,B).
The 20S proteasome was labeled following the manufacturer’s protocol using the RED-NHS 2nd Generation labeling kit, NT-647 (NanoTemper Technologies GmbH, Munich, Germany). Monolith X (NanoTemper) was used to study the interaction between the fluorescently labeled enzyme and the activators. The assay buffer was 50 mM Tris/HCl, pH 7.2, supplemented with 5% glycerol. Serial dilutions of the activators, spanning 16 concentrations from 1.5 nM to 50 μM, were prepared and mixed with the labeled proteasome, whose concentration was kept constant at 10 nM. The IR laser radiation intensity was automatically optimized by the system. MST data were analyzed by fitting the resulting curves using the Hill equation in OriginPro 2021. EC50 values were determined from the results of three independent experiments.

C[C@@H](O)[C@H](NC(=O)[C@H](Cc1ccccc1)NC(=O)[C@H](Cc1ccc(O)cc1)NC(=O)CN(CCCCN)C(=O)[C@H](CCCNC(=N)N)NC(=O)[C@H](CCCNC(=N)N)NC(=O)[C@H](CCCNC(=N)N)NC(=O)[C@H](CCC(N)=O)NC(=O)[C@H](CCCNC(=N)N)NC(=O)[C@H](CCCNC(=N)N)NC(=O)[C@H](CCCCN)NC(=O)[C@H](CCCCN)NC(=O)[C@@H](N)CCCNC(=N)N)C(=O)NCC(=O)N[C@@H](CO)C(=O)N[C@@H](CCCCN)C(=O)N[C@@H](CC(=O)O)C(=O)N[C@@H](Cc1c[nH]c2ccccc12)C(=O)N[C@@H](CCCNC(=N)N)C(=O)N[C@@H](CO)C(=O)N[C@@H](Cc1ccc(O)cc1)C(=O)N[C@@H](Cc1ccc(O)cc1)C(=O)N[C@@H](CO)C(=O)O [1f]
EC50: 1330 ± 90 nM
